Results: US20230322930A1, “USE OF AN ANTI-PD-1 ANTIBODY AND A CYTOTOXIC ANTICANCER DRUG IN TREATMENT OF NON-SMALL CELL LUNG CANCER” (SHANGHAI JUNSHI BIOSCIENCES CO., LTD., priority 2020, published 2023)

Test system: advanced or recurrent NSCLC with EGFR-sensitive mutations after failure of EGFR-TKI treatment
Assay: Phase II clinical trial, antitumor activity study (RECIST v1.1 / irRECIST)
Settings: with pemetrexed + carboplatin

In the case of “toripalimab: anti-PD-1 humanized IgG4 mAb with light and heavy chains of SEQ ID NOs: 9 and 10; described in WO 2014206107”, the patients died (all 40 patients, as of Jul. 10, 2020, median follow-up 7.2 months) is reported as 32.5%, the “ORR using irRECIST criteria” value (irRECIST, 95% CI: 36.1-68.5) is reported as 52.5% and the “DCR using irRECIST criteria” value (irRECIST, 95% CI: 73.2-95.8) is reported as 87.5%. The “median PFS” value (n = 40, 95% CI: 4.8-8.4) was 7.0 months, the “median OS” value (n = 40, 95% CI: 18.0-NE months) was “not reached” and the “median DOR” value was 7.0 months.
